The values below are quoted from earlier work in PMC3721222.

The target of the series is Trypsin (Bos taurus) (UniProt P00760).

A word on the Kd: it is the equilibrium constant for the complex coming apart. As for BPTI (from UniProt P00974), the Kd is 6.57 nM.
